The source of these data is patent publication US20100004257A1, “Identification of Biomarkers Predictive of Dasatinib Effects in Cancer Cells” (University of South Floria, priority 2007, published 2010).

Assay [1] relates to cells with EGFR mutants sensitive to gefitinib (H3255, H1650, HCC827, PC9). As to the kind of experiment: Apoptosis (Apo-BrdU incorporation). The note with it: 500 nmol/L, 36 hours, FIG. 4. It counts as cell-based, Human. For orientation: Uptake of a labelled nucleoside into DNA is a usual measure of proliferation.
Assay [2] concerns WT EGFR cells (A549 and H358) and gefitinib resistant H1975 cells. Put plainly: Apoptosis (Apo-BrdU incorporation). It counts as cell-based, Human. The note with it: 500 nmol/L, 36 hours, FIG. 4.
For assay [3], the system named is cells with EGFR mutation, including H1975. As to the kind of experiment: Cell cycle (propidium iodide staining and flow cytometry). It counts as cell-based, Human. To be noted: 500 nmol/L; 16 to 24 hours; FIG. 5.
Assay [4] concerns pAkt, pSTAT3, cleaved PARP in HCC827 cells. As to the kind of experiment: Western analysis of pAkt, pSTAT3 and cleaved PARP. It counts as cell-based, Human. The note with it: 24 hours.
Assay [5] has as its system pTyr416 Src (pSrc) family in HCC827 cells. As to the kind of experiment: Western analysis of Src phosphorylation status. It counts as cell-based, Human. The note with it: 24 hours, dasatinib at 50 nmol/L.
For assay [6], the system named is pSrc in A549 or H358 cells with WT EGFR. As to the kind of experiment: Western analysis of Src phosphorylation status. It counts as cell-based, Human. The note with it: 3 hours, gefitinib 1 μmol/L, dasatinib 500 nmol/L.
Assay [7] deals with EGFR. As to the kind of experiment: Western analysis of EGFR phosphorylation status in lung cancer cell lines. It counts as cell-based, Human. To be noted: cell lines evaluated; indicated concentrations; 24 hours; FIG. 9.
The test system of assay [8] is WT EGFR, L858R EGFR, and del L747-E749; A750P EGFR in HEK293 cells. Put plainly: EGFR phosphorylation in transfected HEK293 cells. It counts as cell-based. The note with it: 3 hours, FIG. 10.
Assay [9] relates to cells with WT EGFR (A549 and H1299) and gefitinib resistant EGFR (H1975) mutation. As to the kind of experiment: Tumor cell invasion, Boyden chambers. The note with it: gefitinib 1 μmol/L, dasatinib 500 nmol/L, FIG. 14. It counts as cell-based, Human.
In assay [10] the test system is lung cancer cells with EGFR mutation that are resistant to EGFR TKI. As to the kind of experiment: Apoptosis and cell cycle in cells with acquired resistance to erlotinib. It counts as cell-based, Human. The note with it: EGFR mutant cells resistant to EGFR TKI.

For the compound `Cc1nc(Nc2ncc(C(=O)Nc3c(C)cccc3Cl)s2)cc(N2CCN(CCO)CC2)n1` [dasatinib, N-(2-chloro-6-methylphenyl)-2-[[6-[4-[(2-hydroxyethyl)-1-pipperazinyl]-2-methyl-4-pyrimidinyl]amino]-5-thiazolecarboxamide, monohydrate], the apoptosis result in assay [1] is “resulted in apoptosis”; in assay [2], “minimal apoptosis”; in assay [10], “do not demonstrate significant amounts of apoptosis”. Further, the “DNA synthesis (cell cycle)” value in [3] was “inhibits DNA synthesis”. The PARP cleavage result in assay [4] (50 nmol/L) was “induces PARP cleavage”. Besides, the pAkt entry in assay [4] (50 nmol/L) is “inhibits pAkt”. Besides, the pSTAT3 entry in assay [4] is “modest changes”. Also, the pSrc result in assay [5] is “inhibits the lowest mobility pSrc band”; in assay [6] it was “completely inhibits pSrc”. For the same compound, the EGFR phosphorylation status result in assay [7] is “concentration-dependent inhibition”. Further, the EGFR phosphorylation entry in assay [8] (500 nmol/L) was “inhibited EGFR phosphorylation, although not to the extent seen with gefitinib”. For the same compound, the tumor cell invasion entry in assay [9] is “significant inhibitory effect”. In addition, in [10], the cell cycle entry was “dose-dependent G1 cell cycle arrest”.

Turning to `COc1cc2ncnc(Nc3ccc(F)c(Cl)c3)c2cc1OCCCN1CCOCC1` [gefitinib], the “pAkt, PARP cleavage and pSTAT3 results compared with dasatinib” value in assay [4] is recorded as “similar”. Further, the pSrc entry is listed as “no changes” in assay [5] and “unable to inhibit pSrc” in assay [6]. The EGFR phosphorylation result in assay [8] (1 μmol/L) is reported as “completely inhibited EGFR phosphorylation”. Further, in assay [9], the tumor cell invasion entry is reported as “no effect compared with control”.
